We go through one compound from patent publication US5268468A, “N-nitrosophenoxybenzenepropanamine and N-1-chloroethyl carbamate intermediates” (Hoechst-Roussel Pharmaceuticals Incorporated, priority 1993, dated 1993).

The test deals with serotonin uptake in rat whole brain and hypothalamic synaptosomes. Description: [3H]-Serotonin Uptake in Rat Whole Brain and Hypothalamic Synaptosomes. The following applies: rat whole brain or hypothalamic synaptosomes; 50 nM [3H]-5-hydroxytryptamine; 37° C., 5 minutes; pH 7.4; log-probit analysis; read-out: Inhibition of Serotonin Uptake (IC50). In kind it is biochemical, rat (male CR Wistar). From the text: The 2-[3-phenyl-3-(phenoxy)propyl]hydrazines of the present invention are useful for the treatment of personality disorders particularly obsessive compulsive disorders due to their ability to block serotonin uptake in mammals as determined in the assay described below:
[^3 H]-Serotonin Uptake in Rat Whole Brain
and Hypothalamic Synaptosomes
A. Animals: Male CR Wistar rats (100-125 g).
1. Krebs-Henseleit Bicarbonate Buffer, pH 7.4 (KHBB):
Make a 1 liter batch, containing the following salts.
Potassium chloride 0.35 4.7
Calcium chloride 0.14 1.3
Aerate for 60 min. with 95% oxygen/5% carbon dioxide,
2. 0.32 M Sucrose: 21.9 g of sucrose, bring to 200 ml.
3. Serotonin creatinine sulfate 0.1 mM stock solution is
made up in 0.01 N hydrochloric acid. This is used to
dilute the specific activity of radiolabeled
[H^3 ]-5-hydroxytryptamine (serotonin).
4. 5-[1,2-^3 H(N)]-Hydroxytryptamine creatinine sulfate
(Serotonin), specific activity 20-30 Ci/mmol is used.
The final desired concentration of
[H^3 ]-5-hydroxytryptamine in the assay is 50 nM. The
dilution factor is 0.8. Therefore, the KHBB is made up to
contain 62.5 nM [H^3 ]-5-hydroxy-tryptamine.
A) 56.1 μl of 0.1 mM 5-hydroxytryptamine
*B) 0.64 nmole of 5-hydroxytryptamine
5. For most assays, a 1 mM stock solution of the test com-
pound is made up in suitable solvent and serially diluted […]
scintillation vials, and counted in 10 ml of Liquiscint […]

Counter-ions that a name gives are not always drawn.

For orientation: IC50 means the concentration at which inhibition is half-maximal.

For `CNCCC(Oc1ccc(C(F)(F)F)cc1)c1ccccc1` (stereo not shown) [N-Methyl-3-[4-(trifluoromethyl)phenoxy]benzenepropanamine hydrochloride], the IC50 was 250 nM.
